UUG fidelity: modulators of start codon recognition fidelity in yeast; AID 602363; hit rate 0.13% among 350,000; activity score, % at 18.7 µM; S. cerevisiae UUG-firefly luciferase reporter, luminescence/redox ratio;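 active = replicate mean at a twofold rise or more, about +100% in these data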;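 note: firefly luciferase made from a UUG start codon reports start codon fidelity; reporter light over untreated wells divided by growth signal over untreated wells; some hits fall short of that in this replicate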
ALR H2O2 inh: inhibitors of human ALR sulfhydryl oxidase, primary screen, biochemical, H2O2 detection, HRP-luminol luminescence, single point. purified ALR, DTT oxidation. inhibition, % (concentration not given with the values). 290,000 compounds, 3.8% hits. AID 485317, 2010;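 active = mean and each replicate at 75% or more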;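 note: stock transfer was 7.5 nL into about 7.5 µL; 0% = neutral wells and 100% = wells with inactivated enzyme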
NALP1 inh: inhibitors of NALP1 inflammasome in yeast; inhibition, % at 10 µM; 280,000 tested, 0.61% active; S. cerevisiae NALP1/ASC/caspase-1 growth, X-gal OD620, 72 h; in the data active = inhibition mostly above about 24%, no sharp cut-off; inactive = mostly below about 32%
HDAC3 inh: inhibitors of human histone deacetylase 3; O15379; recombinant HDAC3, fluorogenic peptide/trypsin coupled, fluorescence; inhibition, % at 8.3 µM; 320,000 tested, 0.15% active; in the data active = inhibition above about 26%, passing the limit was not always enough; inconclusive = no clear call, values can overlap the other calls
MC4R antagonist: antagonists of human melanocortin 4 receptor (MC4R). inhibition, % at 6.5 µM. 360,000 tested, 0.48% active. MC4R-expressing cells, MTII-stimulated cAMP, LANCE TR-FRET. P32245;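 active = inhibition above its plate's cutoff, the mean of tested wells on that plate plus 3 SD, cut at about 29% in these data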
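System: U2OS cells stably expressing human melanocortin 4 receptor (MC4R). Reagent: Melanotan II challenge after compound preincubation. Doses: 6.5 µM. Times: 30-min compound, 1-h challenge, 1-h detection, room temperature. Measured by: TR-FRET with Eu-cAMP and labeled anti-cAMP, 671 nm. Replicates: singlicate.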
MC4R barr agon: human MC4R agonism via beta-arrestin; P32245; U2OS MC4R beta-arrestin complementation, luminescence; percent of melanotan II response, DMSO zero; activation, % at 8.9 µM; 360,000 tested, 0.98% active; AID 540308;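 active = activation above a per-plate cutoff, the mean activation of sample wells on that plate plus 3 SD, cut at about 8% in these data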
Large screens that a line does not name were inactive. Compounds with a hit are over-represented: about 4.2% of the library has one in this group of screens.

O=C(CC(C(=O)N1CCc2ccccc21)n1ccnc1)NCc1cccnc1 (stereo not given)	none (no result: ALR H2O2 inh)
c1ccc(-c2csc(Nc3cccnc3)n2)nc1	none
Cc1nc(C)c(-c2csc(Nc3ccc(F)cc3)n2)s1	ALR H2O2 inh 94 (no result: UUG fidelity)
Cc1nc(C)c(-c2csc(Nc3ccc(O)cc3C)n2)s1	ALR H2O2 inh 99
Cc1cc(O)ccc1Nc1nc(-c2cccnc2)cs1	none
Cc1cc(O)ccc1Nc1nc(-c2cccs2)cs1	ALR H2O2 inh 88 (no result: UUG fidelity)
c1cncc(Nc2nc(-c3cccs3)cs2)c1	ALR H2O2 inh 96
Cc1nc(C)c(-c2csc(Nc3ccc(C(=O)O)c(O)c3)n2)s1	none
C[C@H](CO)N1C[C@H](C)[C@@H](CN(C)C)Oc2ccc(NC(=O)Nc3ccc(C(F)(F)F)cc3)cc2CC1=O	none (no result: ALR H2O2 inh, NALP1 inh, HDAC3 inh, MC4R antagonist, MC4R barr agon)
C[C@@H]1CCCCO[C@@H](CN(C)Cc2ccc(C(=O)O)cc2)[C@H](C)CN([C@H](C)CO)C(=O)c2cc(NC(=O)c3ccccc3)ccc2O1	none (no result: ALR H2O2 inh, NALP1 inh, HDAC3 inh, MC4R antagonist, MC4R barr agon)
CCNC(=O)C[C@H]1CC[C@@H]2[C@H](COC[C@@H](O)CN2C(=O)Nc2ccc(Cl)c(Cl)c2)O1	none (no result: ALR H2O2 inh, NALP1 inh, HDAC3 inh, MC4R antagonist, MC4R barr agon)
CCCN1C[C@H](C)[C@H](OC)CN(C)C(=O)c2ccc(NC(=O)C3CCOCC3)cc2OC[C@@H]1C	none (no result: ALR H2O2 inh, NALP1 inh, HDAC3 inh, MC4R antagonist, MC4R barr agon)
CN(c1ccc(O)cc1)c1nc(-c2cccs2)cs1	ALR H2O2 inh 98 (no result: UUG fidelity)
Cc1ccc(S(=O)(=O)N[C@@H]2CC[C@H](CCn3cc(C4CC4)nn3)O[C@H]2CO)cc1	none (no result: ALR H2O2 inh, NALP1 inh, HDAC3 inh, MC4R antagonist, MC4R barr agon)
Cn1cnnc1SCC(=O)c1cccc([N+](=O)[O-])c1	ALR H2O2 inh 83
Oc1ccc(N2CCN(c3nnnn3-c3ccccc3)CC2)cc1	ALR H2O2 inh 99
Cc1ccc(NC(=O)c2ccccc2)s1	ALR H2O2 inh 95
CC(=N\Nc1ccccc1)/C(=N/O)C(=O)Nc1ccccc1	ALR H2O2 inh 97
CC1(C)CC(=O)C(C=Nc2ccc(O)cc2)=C(O)C1	ALR H2O2 inh 99
CCOC(=O)COn1c(=O)c(-c2ccc(F)cc2)[n+]([O-])c2ccccc21	none
CCOC(=O)COn1c(=O)c(-c2cccs2)[n+]([O-])c2ccccc21	HDAC3 inh 53
CCCOc1ccc(-c2c(=O)n(OCC(=O)OCC)c3ccccc3[n+]2[O-])cc1	HDAC3 inh 34
O=C(C[C@H]1C=C[C@@H](NC(=O)C2CC2)[C@@H](CO)O1)Nc1nccs1	none (no result: ALR H2O2 inh, NALP1 inh, HDAC3 inh, MC4R antagonist, MC4R barr agon)
C[C@H]1CN([C@@H](C)CO)C(=O)c2cc(-c3cccnc3)cnc2O[C@@H]1CN(C)C(=O)NC1CCCC1	none (no result: ALR H2O2 inh, NALP1 inh, HDAC3 inh, MC4R antagonist, MC4R barr agon)
COC(=O)c1cc(C)sc1NC(=O)CN1CCN(C(=O)C2CCCO2)CC1 (stereo not given)	none (no result: ALR H2O2 inh)
CCOC(=O)c1cc(C)sc1NC(=O)CN1CCN(C(=O)C2CCCO2)CC1 (stereo not given)	ALR H2O2 inh 96
O=S1(=O)NC(=NCCOCCO)c2ccccc21	none
Cc1ccc2c(c1)-c1ccccc1S(=O)(=O)N2	ALR H2O2 inh 95
Nc1ccc2c(c1)-c1ccccc1S(=O)(=O)N2	ALR H2O2 inh 100
O=C(C[C@@H]1CC[C@H](NC(=O)Nc2ccc3c(c2)OCO3)[C@@H](CO)O1)NCc1ccccc1	none (no result: ALR H2O2 inh, NALP1 inh, HDAC3 inh, MC4R antagonist, MC4R barr agon)
C/C(=N\Nc1nccnc1Cl)c1ccc(O)cc1	ALR H2O2 inh 93
C[C@H](CO)N1C[C@H](C)[C@@H](CN(C)S(=O)(=O)c2ccccc2)OCCCC[C@H](C)Oc2ccc(NS(=O)(=O)c3ccc(Cl)cc3)cc2C1=O	none (no result: ALR H2O2 inh, NALP1 inh, HDAC3 inh, MC4R antagonist, MC4R barr agon)
Cc1ccc(/C=N/n2cc(-c3ccccc3)[nH]c2=S)s1	ALR H2O2 inh inconclusive, NALP1 inh 25
Oc1ccc(/C=N/n2cc(-c3ccccc3)[nH]c2=S)cc1	ALR H2O2 inh 99 (no result: UUG fidelity)
O=C(C[C@H]1CC[C@H](NC(=O)Nc2ccc(F)cc2)[C@@H](CO)O1)NCc1cccc(F)c1	none (no result: ALR H2O2 inh, NALP1 inh, HDAC3 inh, MC4R antagonist, MC4R barr agon)
CCCCCCOc1ccc(/C(N)=N/O)cc1	ALR H2O2 inh 99 (no result: UUG fidelity)
N=C(N)c1ccc(OCCCCCOc2ccc(C(=N)N)cc2)cc1	HDAC3 inh 61
C[C@H](CO)N1C[C@H](C)[C@@H](CN(C)Cc2ccccc2)Oc2cc(C#CC3CC3)ccc2S1(=O)=O	none (no result: ALR H2O2 inh, NALP1 inh, HDAC3 inh, MC4R antagonist, MC4R barr agon)
COc1ccc(/C=N/NC(=O)CCc2c(C)n[nH]c2C)cc1O	ALR H2O2 inh 99
COc1ccc(/C=N/NC(=O)CCc2n[nH]c(=O)[nH]c2=O)cc1O	ALR H2O2 inh 99
CN(C)CC(=O)Nc1ccc2c(c1)[C@@H]1C[C@@H](CC(=O)NCc3ccc(Cl)cc3)O[C@H](CO)[C@@H]1O2	none (no result: ALR H2O2 inh, NALP1 inh, HDAC3 inh, MC4R antagonist, MC4R barr agon)
COc1ccc(Cc2noc(CN(C)CCc3ccccc3)n2)cc1OC	none
COc1ccc(Cc2noc(CN(C)CCN3CCc4ccccc4C3)n2)cc1OC	NALP1 inh 29
O=C(CSCc1ccc(Cl)cc1)Nc1ccc(O)cc1C(=O)O	ALR H2O2 inh 96
O=C(Cc1cccc2ccccc12)Nc1ccc(O)cc1C(=O)O	ALR H2O2 inh 97 (no result: NALP1 inh)
C[C@H](O)C#Cc1cnc2c(c1)C(=O)N([C@H](C)CO)C[C@@H](C)[C@H](CN(C)C(=O)CC1CC1)O2	none (no result: ALR H2O2 inh, NALP1 inh, HDAC3 inh, MC4R antagonist, MC4R barr agon)
C[C@H](CO)N1C[C@H](C)[C@@H](CN(C)CC2CCOCC2)Oc2ncc(C3=CCCCC3)cc2C1=O	none (no result: ALR H2O2 inh, NALP1 inh, HDAC3 inh, MC4R antagonist, MC4R barr agon)
C=CCSc1nc2c(C(=O)OCC)nnn2c2ccccc12	none
